Measured values: patent publication US20140106440A1, “ENHANCED ENZYMATIC CO2 CAPTURE TECHNIQUES ACCORDING TO SOLUTION PKA, TEMPERATURE AND/OR ENZYME CHARACTER” (CO2 SOLUTIONS INC., priority 2011, published 2014)

Tested on: thermostable variant of hCA II ('5X' mutant, M5X)
[1] = linear regression method, 5X CA

| Compound | k3* [1] | k4* [1] | k3* | observed kOV |
| --- | --- | --- | --- | --- |
| NCCO [MEA, monoethanolamine] | 0.057 m^6 · mol^−1 · g^−1 · s^−1 | 0.040 m^3 · g^−1 |  |  |
| CC(O)CN(CC(C)O)CC(C)O (stereo not shown) [TIPA, tri-isopropanolamine] |  |  | 0.028 m^6 · mol^−1 · kg^−1 · s^−1 and 0.036 m^6 · mol^−1 · g^−1 · s^−1 | 110 to 150 s⁻¹ |

“And” between values parts separate entries of the source, which are not always exact repeats. Identical values can stand only once. Like-named read-outs stand apart in the source and are kept apart here.
